The values below come from article PMC137588 (BMC Neuroscience, 2002).

Sequences of proteins named here, by UniProt entry; tags and fusion partners are left off. A change or cut given only in a name is not applied to a line headed by its entry.
UniProt P32300, whole entry: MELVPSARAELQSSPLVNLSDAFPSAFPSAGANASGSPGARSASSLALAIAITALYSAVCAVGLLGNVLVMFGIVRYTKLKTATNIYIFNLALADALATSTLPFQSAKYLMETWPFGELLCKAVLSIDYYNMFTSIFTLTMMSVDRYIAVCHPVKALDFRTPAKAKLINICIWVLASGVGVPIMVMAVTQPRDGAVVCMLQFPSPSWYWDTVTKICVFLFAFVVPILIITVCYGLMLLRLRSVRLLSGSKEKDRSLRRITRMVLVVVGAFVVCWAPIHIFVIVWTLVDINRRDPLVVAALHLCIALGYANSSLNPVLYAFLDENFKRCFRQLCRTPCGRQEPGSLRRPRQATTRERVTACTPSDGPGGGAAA

For orientation: Ki means a dissociation constant, usually derived from enzyme kinetics or from competition with a known ligand. The low end stands for higher affinity, the high end for lower affinity.

The assay has as its target mouse δ opioid receptor (Mus musculus, UniProt P32300). Briefly: biochemical. It counts as binding.

As to `C=CCN1CC[C@]23c4c5ccc(O)c4O[C@H]2[C@@H](O)C=C[C@H]3[C@H]1C5` [Nalorphine], the Ki amounted to 38.5 ± 4 nM.
